Data from patent publication US20230357154A1 (priority 2019, published 2023).
Like-named read-outs stand apart in the source and are kept apart here.

By UniProt entry, the sequences of proteins in these tests, tags left out. Residues count along the entry.
UniProt P06276, 29-602 limits assumed: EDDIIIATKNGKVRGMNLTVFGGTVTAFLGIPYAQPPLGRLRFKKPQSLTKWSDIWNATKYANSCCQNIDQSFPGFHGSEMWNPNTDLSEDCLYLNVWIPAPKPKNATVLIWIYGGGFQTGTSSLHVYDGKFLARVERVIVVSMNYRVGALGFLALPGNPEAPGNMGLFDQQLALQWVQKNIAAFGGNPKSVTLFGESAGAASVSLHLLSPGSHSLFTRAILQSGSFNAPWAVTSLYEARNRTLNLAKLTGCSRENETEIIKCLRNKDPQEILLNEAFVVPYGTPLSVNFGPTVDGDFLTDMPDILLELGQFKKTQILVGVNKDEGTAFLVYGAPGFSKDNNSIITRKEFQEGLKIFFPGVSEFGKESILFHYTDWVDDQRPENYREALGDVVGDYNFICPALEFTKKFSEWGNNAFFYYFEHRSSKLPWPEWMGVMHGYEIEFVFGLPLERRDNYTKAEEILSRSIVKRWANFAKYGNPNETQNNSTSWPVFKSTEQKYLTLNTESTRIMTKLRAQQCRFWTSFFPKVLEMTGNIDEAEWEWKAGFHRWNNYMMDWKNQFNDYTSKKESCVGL

How the values were obtained:
[1] = biological target: butyrylcholinesterase (BChE) (Homo sapiens, UniProt P06276); test: In vitro enzyme kinetics; type: biochemical; conditions: rate of first chemical step
[2] = whole brain; for t1/2 clearance (pooled): pooled across mouse strains

Compound | kcat [1] | t1/2 clearance (pooled) [2] | t1/2 clearance ([2]; BChE-KO mice) | t1/2 clearance ([2]; 5XFAD-BChE-KO mouse)
COc1cccc(C(=O)OCc2ccc(I)cc2)n1 [TRV7019, (p-iodophenyl)methyl 6-methoxy-2-pyridinecarboxylate] | 1333.3 s⁻¹ | 2.50 ± 0.41 min |  | 
Cn1c(C(=O)OCc2ccc(I)cc2)cccc1=O [TRV7006, (p-Iodophenyl)methyl 1-methyl-6-oxo-1H-pyridine-2-carboxylate] | 50 s⁻¹ | 4.36 ± 0.75 min | 3.27 ± 0.93 min | 
O=C(OCc1ccc(I)cc1)c1cccc(=O)[nH]1 [TRV7005, (p-Iodophenyl)methyl 6-oxo-1H-pyridine-2-carboxylate] | 81.67 s⁻¹ | 7.23 ± 0.95 min |  | 10.38 min
